Source: ChEMBL document CHEMBL1143102, “Synthesis, radiofluorination, and in vitro evaluation of pyrazolo[1,5-a]pyridine-based dopamine D4 receptor ligands: discovery of an inverse agonist radioligand for PET” (J Med Chem, 2008)

Assays:
Homo sapiens [1] = species on record: Homo sapiens; assay: Selectivity for human dopamine D4.4 receptor over human dopamine D2L receptor
Homo sapiens [2] = species on record: Homo sapiens; assay: Selectivity for human dopamine D4.4 receptor over human dopamine D3 receptor
Homo sapiens [3] = species on record: Homo sapiens; assay: Selectivity for human dopamine D4.4 receptor over human dopamine D2S receptor

- Ratio Ki (Homo sapiens [1]): 94
- Ratio Ki (Homo sapiens [2]): 200
- Ratio Ki (Homo sapiens [3]): 112
Structure (SMILES): FCCOc1ccccc1N1CCN(Cc2cnn3ccccc23)CC1
